Earlier results in patent US8933038B2, “Method of treating cancer with an HLA-A*3303-restricted WT1 peptide and pharmaceutical composition comprising the same” (International Institute of Cancer Immunology, Inc., priority 2006, dated 2015).

Chains of the proteins cited; added tags and fusions are not shown. Lines headed by an entry give the natural chain unless they say otherwise; changes in a name come on top.
UniProt P19544: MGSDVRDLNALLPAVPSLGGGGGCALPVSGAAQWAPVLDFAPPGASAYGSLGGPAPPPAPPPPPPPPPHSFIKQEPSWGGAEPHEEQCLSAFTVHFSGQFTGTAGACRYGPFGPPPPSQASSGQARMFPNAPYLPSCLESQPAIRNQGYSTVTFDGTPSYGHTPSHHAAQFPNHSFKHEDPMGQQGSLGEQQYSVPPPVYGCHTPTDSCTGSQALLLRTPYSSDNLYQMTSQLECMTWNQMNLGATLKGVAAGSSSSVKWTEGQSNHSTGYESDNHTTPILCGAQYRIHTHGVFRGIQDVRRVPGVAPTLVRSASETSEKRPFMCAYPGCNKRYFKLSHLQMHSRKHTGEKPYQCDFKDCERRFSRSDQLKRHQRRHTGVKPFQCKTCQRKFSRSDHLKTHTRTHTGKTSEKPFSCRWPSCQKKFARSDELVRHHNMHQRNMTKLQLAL

Tested on: human peripheral blood mononuclear cells having HLA-A*0201
Conditions: human PBMCs having HLA-A*0201 stimulated with peptide; Non-patent Document 11; cited from earlier work

Db126 peptide: WT1 peptide having a high ability to bind to an HLA-A*0201 molecule (RMFPNAPYL; UniProt P19544 126-134, looked up, fragment)
induction of WT1-specific CTLs: WT1-specific CTLs are induced
